# Assay results reported in patent US9242993B2, “Morpholino substituted bicyclic pyrimidine urea or carbamate derivatives as mTOR inhibitors” (CELLZOME LIMITED, priority 2011, dated 2016).
# Amino acid sequences for entries named in this document (tags omitted). A change or cut given only in a name is not applied to a line headed by its entry.
# UniProt P42336, whole entry: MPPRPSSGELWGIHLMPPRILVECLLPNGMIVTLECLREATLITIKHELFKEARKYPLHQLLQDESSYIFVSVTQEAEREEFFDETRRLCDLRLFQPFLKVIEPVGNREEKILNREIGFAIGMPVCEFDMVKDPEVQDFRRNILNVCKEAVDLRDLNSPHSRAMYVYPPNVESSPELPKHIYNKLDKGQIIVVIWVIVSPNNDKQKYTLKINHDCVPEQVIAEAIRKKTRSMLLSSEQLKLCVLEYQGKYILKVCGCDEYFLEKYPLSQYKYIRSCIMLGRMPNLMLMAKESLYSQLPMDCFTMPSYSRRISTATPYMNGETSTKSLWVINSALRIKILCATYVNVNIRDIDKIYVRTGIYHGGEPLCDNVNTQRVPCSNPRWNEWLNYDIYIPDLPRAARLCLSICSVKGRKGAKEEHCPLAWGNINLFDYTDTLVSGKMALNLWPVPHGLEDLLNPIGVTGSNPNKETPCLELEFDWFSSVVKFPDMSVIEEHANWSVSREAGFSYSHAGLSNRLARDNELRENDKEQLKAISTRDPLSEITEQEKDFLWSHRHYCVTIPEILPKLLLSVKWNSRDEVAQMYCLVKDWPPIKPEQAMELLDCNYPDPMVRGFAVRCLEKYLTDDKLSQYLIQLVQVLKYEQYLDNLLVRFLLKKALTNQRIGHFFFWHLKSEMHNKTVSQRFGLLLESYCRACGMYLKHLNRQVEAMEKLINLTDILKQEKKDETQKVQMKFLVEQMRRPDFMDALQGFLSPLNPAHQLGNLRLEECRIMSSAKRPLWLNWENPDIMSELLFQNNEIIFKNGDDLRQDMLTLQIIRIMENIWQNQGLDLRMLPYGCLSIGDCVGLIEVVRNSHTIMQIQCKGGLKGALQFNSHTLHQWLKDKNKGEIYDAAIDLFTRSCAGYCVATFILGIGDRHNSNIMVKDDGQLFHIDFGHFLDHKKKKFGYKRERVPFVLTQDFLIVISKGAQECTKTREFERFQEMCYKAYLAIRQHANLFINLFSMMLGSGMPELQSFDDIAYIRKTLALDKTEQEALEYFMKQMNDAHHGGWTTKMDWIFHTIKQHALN
# UniProt P42338: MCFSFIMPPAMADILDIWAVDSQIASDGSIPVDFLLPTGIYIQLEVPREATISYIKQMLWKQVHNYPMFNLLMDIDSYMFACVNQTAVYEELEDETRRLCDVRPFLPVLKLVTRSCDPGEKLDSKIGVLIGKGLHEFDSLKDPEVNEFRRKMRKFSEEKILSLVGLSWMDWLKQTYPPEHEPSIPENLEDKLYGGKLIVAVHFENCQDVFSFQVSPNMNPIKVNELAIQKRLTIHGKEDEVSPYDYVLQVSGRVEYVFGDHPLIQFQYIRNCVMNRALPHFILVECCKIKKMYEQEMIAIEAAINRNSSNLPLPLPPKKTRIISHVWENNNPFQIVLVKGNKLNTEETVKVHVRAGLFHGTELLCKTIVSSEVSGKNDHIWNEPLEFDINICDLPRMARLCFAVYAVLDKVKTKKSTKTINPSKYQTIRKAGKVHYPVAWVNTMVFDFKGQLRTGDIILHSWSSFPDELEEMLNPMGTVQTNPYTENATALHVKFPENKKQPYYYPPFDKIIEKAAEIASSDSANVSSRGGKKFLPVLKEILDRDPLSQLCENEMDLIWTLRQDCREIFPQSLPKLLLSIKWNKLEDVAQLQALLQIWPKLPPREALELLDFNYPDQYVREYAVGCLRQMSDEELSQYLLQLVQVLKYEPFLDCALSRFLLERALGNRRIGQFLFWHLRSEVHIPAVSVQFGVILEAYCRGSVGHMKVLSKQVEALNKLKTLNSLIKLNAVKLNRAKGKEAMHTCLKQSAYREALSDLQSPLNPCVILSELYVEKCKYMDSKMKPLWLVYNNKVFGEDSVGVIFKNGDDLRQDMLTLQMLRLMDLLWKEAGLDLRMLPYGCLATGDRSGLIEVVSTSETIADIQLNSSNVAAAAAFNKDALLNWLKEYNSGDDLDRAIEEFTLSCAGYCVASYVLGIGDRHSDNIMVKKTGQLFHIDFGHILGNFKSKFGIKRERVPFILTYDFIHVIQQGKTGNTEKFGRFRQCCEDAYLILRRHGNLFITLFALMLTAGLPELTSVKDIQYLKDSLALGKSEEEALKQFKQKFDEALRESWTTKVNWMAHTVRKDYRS
# UniProt P48736: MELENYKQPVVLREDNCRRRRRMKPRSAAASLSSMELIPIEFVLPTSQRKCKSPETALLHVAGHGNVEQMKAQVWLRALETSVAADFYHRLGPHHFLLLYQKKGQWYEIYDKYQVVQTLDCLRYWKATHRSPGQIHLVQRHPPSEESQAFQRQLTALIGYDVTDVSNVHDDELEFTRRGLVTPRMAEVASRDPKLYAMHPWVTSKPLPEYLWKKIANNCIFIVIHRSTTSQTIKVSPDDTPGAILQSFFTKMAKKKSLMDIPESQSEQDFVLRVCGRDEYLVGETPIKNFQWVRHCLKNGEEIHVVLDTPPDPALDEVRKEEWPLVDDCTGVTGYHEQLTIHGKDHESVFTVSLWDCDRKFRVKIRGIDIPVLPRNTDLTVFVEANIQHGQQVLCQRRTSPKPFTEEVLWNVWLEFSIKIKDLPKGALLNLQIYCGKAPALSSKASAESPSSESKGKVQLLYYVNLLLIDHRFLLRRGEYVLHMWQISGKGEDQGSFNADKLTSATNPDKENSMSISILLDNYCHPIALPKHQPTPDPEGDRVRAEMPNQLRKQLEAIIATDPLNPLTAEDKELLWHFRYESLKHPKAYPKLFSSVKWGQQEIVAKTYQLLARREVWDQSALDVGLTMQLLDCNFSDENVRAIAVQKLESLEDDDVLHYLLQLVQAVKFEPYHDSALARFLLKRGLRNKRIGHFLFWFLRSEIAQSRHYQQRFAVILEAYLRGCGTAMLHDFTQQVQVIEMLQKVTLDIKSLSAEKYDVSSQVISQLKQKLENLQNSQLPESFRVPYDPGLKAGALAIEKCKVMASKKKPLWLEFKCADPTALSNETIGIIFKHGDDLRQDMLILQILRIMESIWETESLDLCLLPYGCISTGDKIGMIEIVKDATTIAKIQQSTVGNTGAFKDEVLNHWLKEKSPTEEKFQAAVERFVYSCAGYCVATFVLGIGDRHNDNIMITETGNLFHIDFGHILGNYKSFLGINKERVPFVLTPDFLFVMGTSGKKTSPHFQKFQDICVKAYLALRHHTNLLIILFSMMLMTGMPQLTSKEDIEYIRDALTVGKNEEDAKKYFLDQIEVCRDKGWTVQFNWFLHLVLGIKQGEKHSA
# pIC50: −log10 of the molar value.
# Tests used:
# Type in all cases: binding
# [1] = biological target: PI3K alpha (PI3Ka) (Homo sapiens, UniProt P42336); test: kinobeads assay, PI3K alpha; conditions: Jurkat cell lysate, read-out: PI3Ka inhibition value (IC50), activity level
# [2] = biological target: PI3K beta (PI3 Kb) (Homo sapiens, UniProt P42338); test: kinobeads assay, PI3K beta; conditions: Jurkat cell lysate, read-out: PI3Kb inhibition value (IC50), activity level
# [3] = biological target: PI3K gamma (PI3 Kg) (Homo sapiens, UniProt P48736); test: kinobeads assay, PI3K gamma; conditions: Jurkat cell lysate, read-out: PI3Kg inhibition value (IC50), activity level
smiles,measurement,setting,value
"CC[C@H]1COCCN1c1nc(-c2ccc(NC(=O)NC)cc2F)nc2c1C(C)S(=O)(=O)C2(C)C (stereo partly drawn) [Example 79, 1-(4-(4-((S)-3-ethylmorpholino)-5,7,7-trimethyl-6,6-dioxido-5,7-dihydrothieno[3,4-d]pyrimidin-2-yl)-3-fluorophenyl)-3-methylurea]",pIC50,[1],< 5.00
same,pIC50,[2],< 5.00
"CNC(=O)Nc1ccc(-c2nc(N3CCOC[C@@H]3C)c3c(n2)C(C)(C)S(=O)(=O)C3C)c(F)c1 (stereo partly drawn) [Example 78, 1-(3-fluoro-4-(5,7,7-trimethyl-4-((S)-3-methylmorpholino)-6,6-dioxido-5,7-dihydrothieno[3,4-d]pyrimidin-2-yl)phenyl)-3-methylurea]",pIC50,[1],< 5.00
same,pIC50,[2],< 5.00
same,pIC50,[3],< 5.00
"CNC(=O)Nc1ccc(-c2nc(N3CCOC[C@@H]3C)c3c(n2)C(C)(C)S(=O)(=O)C3C)cc1 (stereo partly drawn) [Example 77, 1-methyl-3-(4-(5,7,7-trimethyl-4-((S)-3-methylmorpholino)-6,6-dioxido-5,7-dihydrothieno[3,4-d]pyrimidin-2-yl)phenyl)urea]",pIC50,[3],< 5.00
